Source: PubChem BioAssay (NCI)
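Where inhibition never reached the appropriate level, the endpoint shown equals the highest concentration tested. Otherwise, values were interpolated linearly from a five-concentration, 48-hour dose response in 96-well plates. The concentration for 50% growth inhibition is given as GI50. TGI denotes the concentration required for complete inhibition of growth.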

System: U251 CNS
Test: NCI-60 cell line screen, 48 h

With CCCCCCC[CH2][Sn]([CH2]CCCCCCC)([O]c1c([N+](=O)[O-])cc([N+](=O)[O-])cc1[N+](=O)[O-])[O]c1c([N+](=O)[O-])cc([N+](=O)[O-])cc1[N+](=O)[O-] the GI50 was 1.75 µM and the TGI was 4.47 µM.
